Test results published in patent US6855512B2, “Methods for identifying inhibitors of cytochrome P450RAI” (Allergan, Inc., priority 2000, dated 2005).

By UniProt entry, the sequences of proteins in these tests, tags left out.
UniProt O43174, whole entry: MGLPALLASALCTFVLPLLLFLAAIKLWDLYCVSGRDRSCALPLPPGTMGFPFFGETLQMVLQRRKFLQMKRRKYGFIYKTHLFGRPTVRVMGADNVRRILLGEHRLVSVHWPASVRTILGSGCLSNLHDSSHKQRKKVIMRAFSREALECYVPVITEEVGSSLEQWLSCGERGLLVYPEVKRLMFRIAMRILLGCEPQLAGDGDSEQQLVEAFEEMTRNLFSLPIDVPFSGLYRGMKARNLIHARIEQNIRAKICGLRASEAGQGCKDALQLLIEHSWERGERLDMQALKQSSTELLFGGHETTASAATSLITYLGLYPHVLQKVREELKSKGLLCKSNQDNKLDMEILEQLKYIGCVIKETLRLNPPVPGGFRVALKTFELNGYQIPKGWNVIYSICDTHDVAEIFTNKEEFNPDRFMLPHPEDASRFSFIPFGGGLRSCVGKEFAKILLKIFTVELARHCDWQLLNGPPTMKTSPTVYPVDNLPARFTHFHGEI

Biological target: P450RAI-1 (Homo sapiens, UniProt O43174)
Assay: P450RAI-1 cell-based inhibitor assay (intact HeLa)
Conditions: read-out: P450RAI INHIBITION DATA INTACT HELA IC50; P450RAI-1 stably transfected HeLa cells, [3H]-RA, 3 hours at 37° C.; inhibition of all-trans-RA metabolism by 50 percent

IC50	Structure (SMILES)
1200 nM	CC1(C)CCC(=O)c2ccc(C#Cc3ccc(C(=O)O)cc3)cc21
1500 nM	COc1c(C(C)(C)C)cc(C#Cc2ccc(C(=O)O)cc2)cc1C(C)(C)C
